# System: O=P(O)(O)O
# Experiment: purified protein
# Conditions: 2 mM NAD+, 2 mM G3P, 40 mM Tris-HCl pH 8.5, 2 mM EDTA, 25 °C, fit with substrate inhibition
substance,measurement,value
LiGAPDH (Leptospira interrogans serovar Copenhageni str. Fiocruz L1-130),Km,1200 ± 100 µM
same,kcat,110 ± 7 s⁻¹
same,kcat/Km,91000 M⁻¹ s⁻¹

# Source: article PMC10318897, “The structure of Leptospira interrogans GAPDH sheds light into an immunoevasion factor that can target the anaphylatoxin C5a of innate immunity” (Frontiers in Immunology, 2023)
